Data: patent publication US7528234B2, “Process for the preparation of doxorubicin conjugates with lactosaminated human albumin” (priority 2004, dated 2009)

How the values were obtained:
[1] = Solubility of freeze-dried conjugate in 0.9% NaCl; assay type: physicochemical; details: after freeze-drying
Description: The procedure described in detail in “Materials and Methods” yielded reproducible results. In twenty preparations of L-HSA-DOXO, the drug/“carrier” molar ratio (MR) varied from 5 to 6.5. After freeze-drying, these preparations were readily dissolved in 0.9% NaCl at a concentration of 2 mg of DOXO conjugate/ml (corresponding to 40-55 mg of conjugate/ml), yielding clear solutions.

[2] = Stability of the bond between DOXO and L-HSA in mouse plasma in vitro; assay type: in vitro ADME; details: incubated 2 h at 37° C. in mouse plasma
Description: (§1) The stability of the bond between DOXO and L-HSA in mouse plasma in vitro and the distribution of free DOXO (released from the “carrier”) in the organs of the mice injected with the conjugate were studied as described in Di Stefano et al. (Di Stefano G, et al. “Doxorubicin coupled to lactosaminated human albumin . . . ” Dig Liver Dis 2003, 35: 428-33).
(§2) This dose of conjugate corresponded a 1 μg/g of DOXO, which is a therapeutically effective dose.

[3] = Release of conjugated drug on incubation at pH 2 (HPLC); assay type: physicochemical; details: pH 2, 30 min
[4] = Distribution of free DOXO in the organs of mice injected with the conjugate; assay type: in vivo, mouse; details: intravenous 24 μg/g of conjugate (1 μg/g of DOXO), different times (FIG. 1)
Text: Female Swiss mice weighing 26-30 g were used. They were obtained from Harlan Italy (Udine) and were kept in the animal house at the Department of Experimental Pathology of the University of Bologna. The experimental protocols were approved by the University of Bologna's ethics committee.
as §1, §2

Q: For L-HSA-DOXO, which “concentration at which freeze-dried preparations readily dissolved, yielding clear solutions” value [1] is on record?
A: The value was 2 mg of DOXO conjugate/ml.

Q: And the “corresponding conjugate concentration readily dissolved” value [1]?
A: Its value is 40-55 mg of conjugate/ml.

Q: What about the “release of drug in mouse plasma” value [2] of the same substance?
A: Its value is “did not release a measurable quantity of drug”.

Q: What about the “release of conjugated drug at acidic pH” value [3] of the same substance?
A: The value was “released all the conjugated drug”.

Q: What about the “concentrations of free DOXO in the liver versus other organs” value [4] of the same substance?
A: Its value is “quite a number of times higher than those measured in the other organs”.
